Read-outs that look alike come from different tables or passages of the source.
Assays:
[1] = tested on: Tumors (HCT116); assay: Ex vivo Pearl imaging of removed tumors and tissues, tumor to liver ratio; assay type: in vivo; details: mice n=3
Procedure: Tumors (HCT116) and other tissues were then removed from the mice (n=3) and the tumors and tissues were subjected to ex vivo Pearl® imaging. The tumor to liver ratio for each tumor was calculated.

[2] = tested on: HCT 116 tumor; assay: In vivo Pearl imaging, tumor to background ratio; details: HCT 116 tumor-bearing mice, n=3, tail vein 200 μg cetuximab-IRDye-800CW, day 3
Procedure: HCT 116 tumor-bearing mice (n=3) were injected via tail vein with 200 μg of cetuximab-IRDye®-800CW (1) with 30% perflubron as an emulsion (PFCE) (100 μL of cetuximab-IRDye® 800CW at 2 mg/ml was combined with and 100 μL of 60% Perflubron emulsion to make it a 30% solution of Perflubron emulsion), or (2) without PFCE, in a total volume of 200 μL. The mice were then subjected to in vivo imaging at day 3 post-injection using a Pearl® Trilogy Small Animal imaging System (LI-COR Biosciences, Lincoln, NE). The tumor to background ratio (TBR) for each tumor was calculated.

[3] = tested on: SKOV-3/luc tumors; details: cited from earlier work

| Substance | TBR at 3 days post-injection (Ex Vivo Tumor to Liver Ratio) [1] | TBR at 3 days post-injection (In Vivo TBR) [2] | relative luminescence units (RLU) ([3]; by day 14 post light treatment) | relative luminescence units (RLU) ([3]; day 4 post light treatment (100 J/cm2 NIR), compared to NIR-treated mice) |
| --- | --- | --- | --- | --- |
| Cetuximab-IR800 (w/out PFCE): cetuximab labeled with near infrared dye IRDye 800CW, given without perflubron emulsion | 2.5 | 3.6 | – | – |
| IR700 conjugated with trastuzumab: IR700 near infrared dye conjugated with trastuzumab (Sato and coworkers) | – | – | recovered to post-treatment levels | lower relative luminescence units |

— US12239719B2, “Fluorochemical targeted therapies” (MT RESEARCH, LLC, priority 2016, dated 2025)
